Experimental findings from publication doi:10.1101/2022.11.28.518222 are described below.

Common to all, as to test: MST
For assay [1], the target named is recombinant IRF6 protein (UniProt O14896).
For assay [2] the target is unchanged. This is another data set of the same source.
Assay [3] shares this target. The source holds these as a separate data set.
For assay [4] the target is unchanged. This is another data set of the same source.
Assay [5] shares this target. This is another data set of the same source.

Like-named read-outs stand apart in the source and are kept apart here.

By Kd is commonly meant the constant that tells how readily two partners part at equilibrium. As for “recombinant IRF6 protein (from UniProt O14896 1-467) (natural protein)”, the Kd in assay [1] was 2.34 µM; in assay [2] it was 0.23 µM; in assay [3], 3.13 µM; in assay [4], 0.48 µM; in assay [5], 234 µM.
